Source: PubChem BioAssay AID651658 (Broad Institute, 2012)
This is a selection; strong and weak results do not stand in their true shares. Some results for these compounds are left out of this collection, so the calls shown say nothing about other tests. The source made the active and inactive calls.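 The calls were made as follows: active = mean Tm shift, scaled 0 neutral to 100 positive control, at about 1.3% or above, every replicate too (limit read from the data); inconclusive = no clear call, values can overlap the other calls; inactive = the rest.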

By UniProt entry, the sequences of proteins in these tests, tags left out.
UniProt Q9HCT0, whole entry: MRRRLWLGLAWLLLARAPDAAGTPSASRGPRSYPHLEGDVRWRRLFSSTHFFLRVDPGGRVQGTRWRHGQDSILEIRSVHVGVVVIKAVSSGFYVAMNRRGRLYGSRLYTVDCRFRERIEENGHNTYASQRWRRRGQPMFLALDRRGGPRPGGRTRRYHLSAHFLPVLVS

target: Fibroblast growth factor 22 (Homo sapiens) (UniProt Q9HCT0); test: binders of human FGF22 protein, primary screen, FGF22 synaptogenesis inhibitor project, biophysical, thermal shift, single point (AID 651658); conditions: recombinant FGF22 thermal shift, SYPRO orange fluorescence; at 9.99 µM; stronger effect = higher value; percent of sucrose octasulfate shift, DMSO zero

**Q.** Which activity (Tm shift, normalised) does the source give for `COc1cccc(C(=O)NCC2(N3CCCCC3)CCCCC2)c1` here?
**A.** Its activity (Tm shift, normalised) is inactive: 0.114%.

**Q.** `COc1ccc(Cl)cc1C(=O)NCC1(N(C)C)CCCCC1` was tested. Which activity (Tm shift, normalised) did it give?
**A.** The activity (Tm shift, normalised) was inactive: -0.141%.

**Q.** Which activity (Tm shift, normalised) does the source give for `O=C(NCC1(N2CCCCC2)CCCCC1)c1cccc(Cl)c1` here?
**A.** The activity (Tm shift, normalised) was inactive: -0.04%.

**Q.** With `CN(C)C1(CNC(=O)c2ccc(Br)cc2)CCCCC1` as the compound, how does the activity (Tm shift, normalised) read?
**A.** The activity (Tm shift, normalised) was inactive: -0.144%.

**Q.** Which activity (Tm shift, normalised) does the source give for `COc1cc(C(=O)NCC2(N(C)C)CCCCC2)c([N+](=O)[O-])cc1OC` here?
**A.** The activity (Tm shift, normalised) was inactive: -0.324%.

**Q.** With `C=C(C)C#CC(O)(C(=O)OC1CCN(C)CC1)c1ccccc1` (configuration not stated) as the compound, how does the activity (Tm shift, normalised) read?
**A.** The activity (Tm shift, normalised) was active: 43%.

**Q.** How did the activity (Tm shift, normalised) turn out when `COc1ccc(Br)c(C(=O)NCC2(N3CCCCC3)CCCCC2)c1` was run?
**A.** Its activity (Tm shift, normalised) is inactive: 0.105%.

**Q.** How did the activity (Tm shift, normalised) turn out when `CC(C)Oc1ccc(C(=O)NCC2(N(C)C)CCCCC2)cc1` was run?
**A.** The activity (Tm shift, normalised) was inactive: -0.131%.

**Q.** Which activity (Tm shift, normalised) does the source give for `O=C(OCCN1CCCC1)C(O)(c1ccccc1)c1ccccc1` here?
**A.** Its activity (Tm shift, normalised) is inactive: 0.166%.

**Q.** With `CCN(CC)CC(C)C(C)OC(=O)C(O)(c1ccccc1)c1ccccc1` (configuration not stated) as the compound, how does the activity (Tm shift, normalised) read?
**A.** Its activity (Tm shift, normalised) is inactive: -0.071%.

**Q.** For `COc1cc(SC)ccc1C(=O)NCC1(N(C)C)CCCCC1`, which activity (Tm shift, normalised) is on record?
**A.** The activity (Tm shift, normalised) was inactive: 0.204%.

**Q.** How did the activity (Tm shift, normalised) turn out when `Cc1ccc(C(=O)NCC2(N3CCCCC3)CCCCC2)cc1` was run?
**A.** The activity (Tm shift, normalised) was inactive: -0.372%.

**Q.** `O=C(NCC1(N2CCCCC2)CCCCC1)c1cc([N+](=O)[O-])ccc1Cl` was tested. Which activity (Tm shift, normalised) did it give?
**A.** Its activity (Tm shift, normalised) is inactive: -0.193%.

**Q.** Which activity (Tm shift, normalised) does the source give for `CN1[C@@H]2CC[C@H]1CC(OC(=O)C(O)(c1ccccc1)c1ccccc1)C2` (some centres not stated) here?
**A.** The activity (Tm shift, normalised) was inactive: -0.083%.

**Q.** How did the activity (Tm shift, normalised) turn out when `C=CCN1CCN(CCOC(=O)C(O)(c2ccccc2)c2ccccc2)CC1` was run?
**A.** Its activity (Tm shift, normalised) is inactive: 0.527%.

**Q.** For `O=C(NCC1(N2CCCCC2)CCCCC1)c1cc(F)c(F)cc1Cl`, which activity (Tm shift, normalised) is on record?
**A.** The activity (Tm shift, normalised) was inactive: -0.053%.

**Q.** How did the activity (Tm shift, normalised) turn out when `COc1ccc(C(=O)NCC2(N(C)C)CCCCC2)cc1` was run?
**A.** The activity (Tm shift, normalised) was inactive: -0.144%.

**Q.** `Cc1cc(C(=O)NCC2(N3CCCCC3)CCCCC2)ccc1[N+](=O)[O-]` was tested. Which activity (Tm shift, normalised) did it give?
**A.** Its activity (Tm shift, normalised) is inactive: -0.442%.

**Q.** How did the activity (Tm shift, normalised) turn out when `O=C(NCC1(N2CCCCC2)CCCCC1)c1cccc(Br)c1` was run?
**A.** The activity (Tm shift, normalised) was inactive: -0.026%.

**Q.** Which activity (Tm shift, normalised) does the source give for `Cc1ccccc1C(=O)NCC1(N2CCCCC2)CCCCC1` here?
**A.** Its activity (Tm shift, normalised) is inactive: 0.093%.

**Q.** For `CN(C)C1CCCC1OC(=O)C(O)(c1ccccc1)c1ccccc1` (configuration not stated), which activity (Tm shift, normalised) is on record?
**A.** The activity (Tm shift, normalised) was inactive: -0.264%.

**Q.** For `CN(C)c1ccc(C(=O)NCC2(N(C)C)CCCCC2)cc1`, which activity (Tm shift, normalised) is on record?
**A.** The activity (Tm shift, normalised) was inactive: 0.168%.
